{"source": "paper PMC4778863", "about": "“A Four-Point Screening Method for Assessing Molecular Mechanism of Action (MMOA) Identifies Tideglusib as a Time-Dependent Inhibitor of Trypanosoma brucei GSK3β” (PLoS Neglected Tropical Diseases, 2016)", "molecular_target": "T1, TbGSK3β (Trypanosoma brucei brucei, UniProt Q388M1)", "T1 construct": "Full-length TbGSK3β (Gene DB ID Tb927.10.13780); 6X His (C); made in house; host or cells: BL21 (DE3) E. coli", "T1 sequence (Q388M1 1-352)": "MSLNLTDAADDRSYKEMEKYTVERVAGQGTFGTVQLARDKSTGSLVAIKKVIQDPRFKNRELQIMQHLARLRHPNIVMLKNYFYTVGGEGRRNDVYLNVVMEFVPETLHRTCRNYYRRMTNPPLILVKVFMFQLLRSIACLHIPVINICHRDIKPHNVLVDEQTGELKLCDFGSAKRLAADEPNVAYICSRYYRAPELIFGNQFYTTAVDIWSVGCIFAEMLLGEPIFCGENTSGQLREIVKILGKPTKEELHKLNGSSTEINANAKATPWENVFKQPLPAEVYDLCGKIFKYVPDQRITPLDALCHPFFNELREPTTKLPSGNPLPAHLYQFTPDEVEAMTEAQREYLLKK", "format": "biochemical", "settings": "% inhibition at 30 min preincubation / % inhibition at 0 min preincubation at 10 μM ATP", "description": "TbGSK3β activity was measured by following the ADP formation associated with the phosphorylation of GSM peptide and detected with ADP-Glo at 23°C. The enzyme reaction was conducted in a volume of 20 μL in a buffer containing 20 mM NaCl, 15 mM HEPES pH 7.4, 1 mM EGTA, 10 mM MgCl2, 0.02% Tween. These assays contained GSM at 10μM (approximating Km) or 80 μM (approximating Vmax). ATP was added at 10 μM and 100 μM to approximate Km and Vmax, respectively.\nAll reactions were incubated for 5 minutes in microcentrifuge tubes, and reactions were terminated at 80°C for 4 min. Of 20 μL reactions, 17.5 μL were transferred into 384 well-plates. Promega ADP-Glo procedures were carried out and phosphorylation measured by Luminoskan Ascent (Thermo Labsystems, Waltham MA). […]\nIC50 for inhibition TbGSK3β was determined as a function of preincubation time (Fig 3). […] ADP product formation was measured by ADP-Glo kit.\nPreincubated reactions were preincubated with inhibitor, TbGSK3β, GSM peptide, and buffer at room temperature; after 30 minutes reactions were initiated with the addition of ATP. […] Reactions were run for 5 min at room temperature, and stopped heat at 80°C, followed by ice bath, and ADP product formation was measured by ADP-Glo kit. […]\nTime dependent inhibition was evaluated by preincubation of TbGSK3β with 60 nM tideglusib and 6 nM GW-8510 with 10μM and 100μM ATP. […] ADP formed was measured by ADP-Glo kit. […]"}
{"smiles": "Cc1cc(Nc2nc(N[C@@H](C)c3ccc(F)cc3)c(C#N)cc2F)[nH]n1", "note": "[AZ960]", "values": [{"measurement": "Ratio Preinc/no preinc", "result": 0.73}]}
